Sampled rows, rich in hits. Any-hit rate of the full collection: about 2.5%.
Apoferritin bind: candidate novel general anesthetic via apoferritin binding; P02791; apoferritin/1-aminoanthracene competitive binding, fluorescence; Potency, µM (top dose mostly 77.5 µM), usual class: inhibitors; 350,000 tested, 0.074% active; also: nearly all actives have a fitted effect of over 20% in size
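Read-out: endpoint 1-AMA fluorescence, excitation 380 nm and emission 535 nm, after compounds sit 10 min at room temperature with 10 uM horse-spleen apoferritin in 50% saturated 1-AMA/PBS. Values come from four-parameter Hill fits.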
rTrxR1 inhibitor: inhibitors of rat thioredoxin reductase 1 | O89049 | recombinant rTrxR1, NADPH fluorescence consumption, selenite substrate | Potency, µM (highest dose often 114 µM), usual class: inhibitors | 390,000 tested, 1% active; also: nearly all actives have a fitted effect of over 65% in size
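Rat TrxR1 (90 nM in the dispensed reagent) was pre-reduced with 400 uM NADPH for 5 min at room temperature, then incubated with compound for 15 min. After 400 uM selenite was added, NADPH fluorescence (Ex 340/Em 450 nm) was followed for 8 min.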
TrxR1 substrate: substrates of rat thioredoxin reductase 1 | Potency, µM (series often up to 114 µM) | 390,000 tested, 0.01% active | O89049 | purified TrxR1 substrate turnover, NADPH consumption readout; also: nearly all actives have a fitted effect of over 50% in size
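Rat TrxR1, dispensed at 90 nM, was prereduced with 400 uM NADPH (final) for 5 min at ~22 deg C, then incubated with compound 15 min before 400 uM selenite. A first-read NADPH fluorescence drop versus no-compound background flagged substrates.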
ClpP mod: qHTS Assay for Activators of ClpP. purified B. subtilis ClpP, FRET peptide cleavage, 20 min. Potency, µM (highest dose often 57.5 µM). 340,000 tested, 1.9% active. AID 651965, 2013; active = well fitted falling curve with a large enough effect; inconclusive = small, poorly fitted or top-dose-only effect; inactive = no such curve, though single readings can be large or run the other way; also: the source files actives as falling curves though it sought activators and does not explain the sign; nearly all actives have a fitted effect of over 65% in size
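ClpP 10 microg/mL final, pH 8 Tris/KCl buffer with BSA, glycerol, Tween-20; compound pinned in; FRET-FV substrate; RT 20 min; Ex320/Em430; ΔFRET vs ADEP 5.8 microM, DMSO, no enzyme.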
miR-21 reporter: raises the signal of a miR-21 reporter; 340,000 tested, under 10 active; HeLa miR-21 FLuc reporter, luciferase, 48 h; Potency, µM (highest dose often 38.3 µM); active = well fitted rising curve with a large enough effect; inconclusive = small, poorly fitted or top-dose-only effect; inactive = no such curve, though single readings can be large or run the other way;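 also: miR-21 action dims this reporter so a rising signal means less miR-21 action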
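HeLa miR-21-FLuc reporter line, endogenous miR-21; 2000 cells/well in DMEM/10% FBS; compound titration up to ~40uM final, 48 h, 37 degree Celsius; luciferase detection reagent, 15 min lysis, CCD luminescence.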
ClpP validation: inhibits B. subtilis ClpP protease, hit validation; shares compounds with ClpP mod; purified B. subtilis ClpP, FRET-FV substrate cleavage, 20 min; Potency, µM (titrated, usually from 57.5 µM), actives largely listed as inhibitors; 470 tested, 40% active; also: nearly all actives have a fitted effect of over 70% in size
Hits are given with their value; - = inactive; ? = inconclusive; . = not tested or not shown. Unless noted, calls follow the shape of the dose curve; as a rule, active = well fitted curve in the direction sought with a large enough effect; inconclusive = small, poorly fitted or top-dose-only effect, or another doubt; inactive = no such curve, though single readings can be large; an effect the other way counts as inactive or inconclusive.

SMILES	Apoferritin bind	rTrxR1 inhibitor	TrxR1 substrate	ClpP mod	miR-21 reporter	ClpP validation
COc1ccc(C)cc1NC(=O)C(OC(=O)c1cnc(C)cn1)c1ccccc1 (stereo not drawn)	.	-	-	-	.	.
Cc1ccc(C)c(NC(=O)C(OC(=O)c2cnc(C)cn2)c2ccccc2)c1 (stereo not drawn)	.	-	-	-	.	-
O=C(Cn1nc(C(F)(F)F)c2c1CCCC2)Nc1ccc(F)c(Cl)c1	-	-	-	-	?	.
COc1ccc2cc3cc(C(=O)Nc4ccccc4C)oc3nc2c1	-	-	-	-	-	15µM
O=S(=O)(Cc1ccccc1)c1ccccc1-c1nnc(-c2ccccc2)o1	-	-	-	-	-	.
Cc1ccc(-c2nnc(-c3ccccc3S(=O)(=O)Cc3ccc(Cl)cc3)o2)cc1	-	-	-	-	-	14µM
O=S(=O)(Cc1ccc(Cl)cc1)c1ccccc1-c1nnc(-c2ccc(Cl)cc2)o1	-	-	-	-	-	27µM
CSc1ccccc1-c1nnc(-c2ccc(C)cc2)o1	-	-	-	-	-	.
CC(C)C(=O)Nc1nnc2n1CCS2	-	-	-	-	-	.
CCOC(=O)CNC(=O)N1CCN(S(=O)(=O)c2ccc3c(ccn3C)c2)CC1	-	-	-	-	-	.
CSc1nc2nc3c(cn2n1)C(=O)CC(c1ccccc1)C3 (stereo not drawn)	-	-	-	-	-	.
O=C1CC(c2ccccc2)Cc2nc3nc(C(F)(F)F)nn3cc21 (stereo not drawn)	-	-	-	-	-	-
Cc1cccc(C)c1NC(=O)C(c1ccc(C(F)(F)F)cc1)n1c(=O)c(-c2cc3ccccc3[nH]2)nc2ccccc21 (stereo not drawn)	.	.	.	-	.	.
CC(C)(C)NC(=O)C(c1ccc(-c2ccccc2)cc1)n1c(=O)c(-c2cc3ccccc3[nH]2)nc2ccccc21 (stereo not drawn)	.	.	.	-	.	-
Cc1cccc(C)c1NC(=O)C(c1ccc(-c2ccccc2)cc1)n1c(=O)c(-c2cc3ccccc3[nH]2)nc2ccccc21 (stereo not drawn)	.	.	.	-	.	-
Cc1ccc2c(=O)cc(C(=O)NCc3ccccc3)oc2c1	-	-	-	-	-	.
O=C(NCc1ccccc1)C(c1cc2ccccc2o1)n1c(=O)c(-c2cc3ccccc3[nH]2)nc2ccccc21 (stereo not drawn)	.	.	.	-	.	-
COc1ccc(NC(=O)C(c2ccc(OC)cc2)n2c(=O)c(-c3cc4ccccc4[nH]3)nc3ccccc32)cc1 (stereo not drawn)	.	.	.	-	.	.
O=C(NCc1ccccc1)C(c1ccccc1)n1c(=O)c(-c2cc3ccccc3[nH]2)nc2ccccc21 (stereo not drawn)	.	.	.	-	.	.
COc1ccc(NC(=O)C(c2cc3ccccc3o2)n2c(=O)c(-c3cc4ccccc4[nH]3)nc3ccccc32)cc1 (stereo not drawn)	.	.	.	-	.	-
COc1ccc(C(=O)Nc2nnc(-c3cccs3)s2)cc1	-	-	-	-	-	17µM
COc1ccc(NC(=O)Nc2nnc(-c3cccs3)s2)cc1	-	-	-	-	-	.
CCn1cc(C(=O)N(C)c2ccc(C(C)C)cc2)c2cc(OC)c(OC)cc2c1=O	-	-	-	-	-	.
Cc1cc(Cl)ccc1NC(=O)C1CCN(c2nnc(-n3c(C)ccc3C)s2)CC1	-	-	-	-	-	.
CCn1c(-c2cccs2)nc2ccccc21	-	-	-	3.2µM	-	14µM
SMILES	Apoferritin bind	rTrxR1 inhibitor	TrxR1 substrate	ClpP mod	miR-21 reporter	ClpP validation
O=C(O)c1ccc2c(ccc3nn(-c4ccc(/C=C/c5ccc(-n6nc7ccc8cc(C(=O)O)ccc8c7n6)cc5[S+](=O)([O-])[O-])c([S+](=O)([O-])[O-])c4)nc32)c1	.	?	-	-	.	.
O=C1Nc2ccc(F)cc2C12Nc1ccccc1-c1nnc(SCc3ccccc3F)nc1O2 (stereo not drawn)	?	-	-	-	-	-
O=C1Nc2ccc(Cl)cc2C12Nc1ccccc1-c1nnc(SCc3ccccc3F)nc1O2 (stereo not drawn)	?	-	-	-	-	.
COc1ccc(Br)cc1CNC(=O)c1cnc2sc(N3CCCCCC3)nn2c1=O	-	-	-	8.9µM	-	-
COc1ccc(Cl)cc1NC(=O)Cn1cc(C(=O)c2ccncc2)c(=O)c2cc(C)ccc21	-	-	-	-	-	.
CCCc1cc(C(=O)O)c2ccccc2n1	-	-	-	-	-	.
CCCc1c2ccccc2nc2ccccc12	-	-	-	7.1µM	-	19µM
Fc1ccc2nc(Nc3nc4cc5c(cc4s3)OCO5)sc2c1	-	-	-	?	-	.
Fc1ccc2nc(Nc3nc4cc5c(cc4s3)OCCO5)sc2c1	-	-	-	6.3µM	-	3.9µM
Fc1ccc2nc(Nc3nc4c(F)cc(F)cc4s3)sc2c1	-	-	-	8.9µM	-	?
Fc1cccc2sc(Nc3nc4ccccc4s3)nc12	-	-	-	-	-	.
Fc1ccc2nc(Nc3nc4c(F)cccc4s3)sc2c1	-	-	-	8.9µM	-	4.9µM
O=S(=O)(c1ccc(F)cc1)N1CCN(c2nc(-c3cccc(Br)c3)nc3ccccc23)CC1	.	-	-	.	.	.
Cc1ccccc1Nc1c(-c2cc(Br)ccc2F)nc2ccccn12	?	-	-	4.5µM	-	-
CCOC(=O)c1sc2ccccc2c1S(=O)(=O)Nc1ccc(CC)cc1	?	-	-	-	-	.
CC1CC(C(F)(F)F)n2nc(C(=O)O)cc2N1 (stereo not drawn)	-	-	-	-	-	.
CCOC(=O)c1cc2n(n1)C(C(F)(F)F)CC(C)N2 (stereo not drawn)	-	-	-	-	-	-
Cc1cccc(Cn2cc(C(=O)Nc3ccc(S(N)(=O)=O)cc3)ccc2=O)c1	-	-	-	-	-	.
COc1ccc(NC(=O)Cn2c(=O)c3cccn3c3ccccc32)cc1	-	-	-	-	-	-
CC(=O)c1ccc(NC(=O)Cn2c(=O)c3cccn3c3ccccc32)cc1	-	-	-	-	-	.
COC(=O)c1ccc(NC(=O)CSc2ccc(-c3sc(-c4ccccc4)nc3C)nn2)cc1	-	-	-	-	-	.
COc1ccc(NC(=O)Cn2c(=O)n(-c3ccc(OC)cc3)c(=O)c3sc4ccccc4c32)cc1	-	-	-	-	-	.
CC(=O)Nc1ccc(NC(=O)c2ccc(N(C)S(=O)(=O)c3ccc(C)cc3)cc2)cc1	-	-	-	-	-	?
CCOC(=O)c1sc2ccccc2c1S(=O)(=O)N1CCN(c2cc(C)ccc2C)CC1	-	-	-	-	-	.
Cc1cccn2cc(-c3ccc(S(=O)(=O)N4CCOCC4)cc3)nc12	-	-	-	3.2µM	-	3.9µM
Cc1cccn2cc(-c3ccc(S(=O)(=O)N4CCCCC4)cc3)nc12	-	?	-	.	-	.

Source: PubChem BioAssay
